Positions count from the first letter of the chain named.
B1: DX-236 truncation SEQ 44 (peptide)
chain: DRIAWYPQHLGGGK
B2: DX-236 Ala mutant 123 (peptide)
chain: AEGTGDFWFCDRAAWYPQHLCEFLDPEGGGK
B3: DX-236 Ala mutant 126 (peptide)
chain: B2 chain with F9A, A13I
B4: DX-236 Ala mutant 115 (peptide)
chain: B2 chain with A13I, F23A
B5: DX-236 Ala mutant 122 (peptide)
chain: B2 chain with A13I, W15A
B6: DX-236 Ala mutant 118 (peptide)
chain: B2 chain with A13I, H19A
B7: DX-236 Ala mutant 117 (peptide)
chain: B2 chain with A13I, L20A
B8: DX-236 Ala mutant 125 (peptide)
chain: B2 chain with D11A, A13I
B9: DX-236 Ala mutant 114 (peptide)
chain: B2 chain with A13I, L24A
B10: DX-236 Ala mutant 120 (peptide)
chain: B2 chain with A13I, P17A
B11: DX-236 Ala mutant 116 (peptide)
chain: B2 chain with A13I, E22A
B12: DX-236 Ala mutant 113 (peptide)
chain: B2 chain with A13I, D25A
B13: DX-236 (peptide)
chain: B2 chain with A13I

Protein sequences, listed by entry. Tags and fused reporters are not part of them.
goat serum albumin (goat), P85295, UniProt P85295, whole entry: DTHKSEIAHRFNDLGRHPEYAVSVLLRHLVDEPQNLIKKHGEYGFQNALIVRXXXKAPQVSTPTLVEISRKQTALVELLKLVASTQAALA

How the values were obtained:
[1] = target: human serum albumin (HSA) (human), P02768; test: FP; conditions: modification not given
[2] = target: human serum albumin (HSA) (human), P02768; test: FP; conditions: modification not given; remark: listed apart in the source
[3] = target: human serum albumin (HSA) (human), P02768; test: FP; conditions: modification not given; remark: listed apart in the source
[4] = target: human serum albumin (HSA) (human), P02768; test: FP; conditions: modification not given; remark: listed apart in the source
[5] = target: human serum albumin (HSA) (human), P02768; test: FP; conditions: modification not given; remark: listed apart in the source
[6] = target: human serum albumin (HSA) (human), P02768; test: FP; conditions: modification not given; remark: listed apart in the source
[7] = target: human serum albumin (HSA) (human), P02768; test: FP; conditions: modification not given; remark: listed apart in the source
[8] = target: goat serum albumin (goat), P85295; test: FP, pH 6.2, no NaCl; conditions: disulfide cyclic, N-acetyl, C-amide, fluorescein on Lys; also SEQ32
[9] = target: goat serum albumin (goat), P85295; test: FP, PBS pH 7.4; conditions: disulfide cyclic, N-acetyl, C-amide, fluorescein on Lys; also SEQ32

Row | Binder | Kd [1] | other results
1 | B1 | 125 µM | –
2 | B2 | 4.5 µM | Kd [2]: 1.1 µM
3 | B3 | 1.1 µM | Kd [3]: 43 µM
4 | B4 | 44 µM | Kd [4]: 1.7 µM
5 | B5 | 44 µM | –
6 | B6 | 1.7 µM | –
7 | B7 | 34.5 µM | –
8 | B8 | 1.6 µM | –
9 | B9 | 47 µM | Kd [5]: 2.1 µM
10 | B10 | 43 µM | –
11 | B11 | 1.7 µM | Kd [6]: 6.6 µM
12 | B12 | 10.5 µM | Kd [7]: 1.7 µM
13 | B13 | – | Kd [8]: 1.6 µM; Kd [9]: 23 µM

From patent US7211395
